The values that follow are results of earlier work, collected in patent US20240016813A1, “METHODS OF TREATING SYMPTOMS OF CORONAVIRUS INFECTION” (Accencio LLC, priority 2020, published 2024).

SMILES strings stand for the structures. Read-outs that look alike come from different tables or passages of the source.

The data set addresses T1, CXCR3 (Homo sapiens, UniProt P49682).
T1 sequence (P49682 1-368): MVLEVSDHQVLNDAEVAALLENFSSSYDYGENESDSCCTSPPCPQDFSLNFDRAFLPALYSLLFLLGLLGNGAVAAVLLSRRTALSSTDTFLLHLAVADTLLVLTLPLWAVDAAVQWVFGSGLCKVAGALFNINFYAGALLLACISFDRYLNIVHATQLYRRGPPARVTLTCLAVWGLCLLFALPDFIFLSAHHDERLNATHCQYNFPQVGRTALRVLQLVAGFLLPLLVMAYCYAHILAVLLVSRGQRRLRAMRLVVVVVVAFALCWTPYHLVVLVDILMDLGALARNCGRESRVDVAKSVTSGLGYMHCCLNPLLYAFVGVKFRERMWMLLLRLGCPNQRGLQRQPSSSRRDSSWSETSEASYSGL

Turning to `CCOc1ccc(-n2c(C(C)N(Cc3cccnc3)C(=O)Cc3ccc(OC(F)(F)F)cc3)nc3ncccc3c2=O)cc1` (centres unmarked) [AMG 487, N-(1-(3-(4-ethoxyphenyl)-4-oxo-3,4-dihydropyrido[2,3-d]pyrimidin-2-yl)ethyl)-N-(pyridin-3-ylmethyl)-2-(4-(trifluoromethoxy)phenyl)acetamide], the 50% inhibitory concentration (IC50) (ligand CXCL10, read-out: IC50, inhibits the binding of CXCL10 to CXCR3) was 8 nM and the IC50 (ligand CXCL11, read-out: IC50, inhibits the binding of CXCL11 to CXCR3) was 8.2 nM.
